Measurements published in patent US9434727B2, “Substituted 4-phenylpiperidines, their preparation and use” (THE TRUSTEES OF COLUMBIA UNIVERSITY IN THE CITY OF NEW YORK, priority 2014, dated 2016).
“And” between values parts separate entries of the source, which are not always exact repeats. Equal entries are not always repeated. Structures can show the parent of a compound that is named as a salt.

What was measured:
[1] = target: RBP4 (Homo sapiens (Human), UniProt P02753); assay: Scintillation proximity (SPA) RBP4 binding assay; settings: 10 nM 3H-Retinol, 50 nM biotinylated RBP4
Procedure: Scintillation Proximity RBP4 Binding Assay
Untagged human RBP4 purified from urine of tubular proteinuria patients was purchased from Fitzgerald Industries International. It was biotinylated using the EZ-Link Sulfo-NHS-LC-Biotinylation kit from Pierce following the manufacturer's recommendations. Binding experiments were performed in 96-well plates (OptiPlate, PerkinElmer) in a final assay volume of 100 μl per well in SPA buffer (IX PBS, pH 7.4, 1 mM EDTA, 0.1% BSA, 0.5% CHAPS). The reaction mix contained 10 nM ^3H-Retinol (48.7 Ci/mmol; PerkinElmer), 0.3 mg/well Streptavidin-PVT beads, 50 nM biotinylated RBP4 and a test compound. Nonspecific binding was determined in the presence of 20 μM of unlabeled retinol. The reaction mix was assembled in the dark under dim red light. The plates were sealed with clear tape (TopSeal-A: 96-well microplate, PerkinElmer), wrapped in the aluminum foil, and allowed to equilibrate 6 hours at room temperature followed by overnight incubation at +4° C. Radiocounts were measured using a TopCount NXT counter (Packard Instrument Company).

[2] = target: RBP4-TTR interaction (Homo sapiens (Human), UniProt P02753); assay: TR-FRET (HTRF) assay for retinol-induced RBP4-TTR interaction; type: biochemical; settings: in the presence of 1 μM retinol; read-out: HTRF assay for antagonists of RBP4-TTR interaction: IC50
Procedure: Bacterially expressed MBP-RBP4 and untagged TTR were used in this assay. […] Human untagged TTR was purchased from Calbiochem. […] HTRF assay was performed in white low volume 384 well plates (Greiner-Bio) in a final assay volume of 16 μl per well. […] All reactions were assembled in the dark under dim red light and incubated overnight at +4° C. wrapped in aluminum foil. […] The TR-FRET signal was expressed as the ratio of fluorescence intensity: Flu665/Flu620×10,000.

Structure (SMILES) | IC50 [1] | IC50 [2]
O=C(c1n[nH]c2c1CN(C(=O)N1CCCCC1)C2)N1CCC(c2ccc(F)c(F)c2C(F)(F)F)CC1 [Compound 128, (4-(3,4-Difluoro-2-(trifluoromethyl)phenyl)piperidin-1-yl)(5-(piperidine-1-carbonyl)-1,4,5,6 tetrahydropyrrolo[3,4-c]pyrazol-3-yl)methanone] | 18.4 nM | –
N#CN1CCc2c(C(=O)N3CCC(c4cccc(F)c4Cl)CC3)n[nH]c2C1 [Compound 148, 3-(4-(2-chloro-3-fluorophenyl)piperidine-1-carbonyl)-4,5-dihydro-1H-pyrazolo[3,4-c]pyridine-6 (7H)-carbonitrile] | 5.12 nM and < 1.37 nM | –
CN1CCc2c(C(=O)N3CCC(c4ccc(F)c(F)c4C(F)(F)F)CC3)n[nH]c2C1 [Compound 113, (4-(3,4-Difluoro-2-(trifluoromethyl)phenyl)piperidin-1-yl)(6-methyl-4,5,6,7-tetrahydro-1H-pyrazolo[3,4-c]pyridin-3-yl)methanone] | 8.57 nM | 29.7 nM
O=C(c1n[nH]c2c1CN(CC1CC1)C2)N1CCC(c2ccc(F)c(F)c2C(F)(F)F)CC1 [Compound 97, (5-(cyclopropylmethyl)-1,4,5,6-tetrahydropyrrolo[3,4-c]pyrazol-3-yl)(4-(3,4-difluoro-2-(trifluoromethyl)phenyl)piperidin-1-yl)methanone] | 14.3 nM | 24 nM
CC(=O)N1Cc2[nH]nc(C(=O)N3CCC(c4ccc(F)c(F)c4C(F)(F)F)CC3)c2C1 [Compound 83, 1-(3-(4-(3,4-Difluoro-2-(trifluoromethyl)phenyl)piperidine-1-carbonyl)pyrrolo[3,4-c]pyrazol-5(1H,4H,6H)-yl)ethanone] | 11.6 nM and < 1.37 nM | 30.8 nM and 4.85 nM
O=C(c1n[nH]c2c1CN(CCC(F)(F)F)CC2)N1CCC(c2cccc(F)c2C(F)(F)F)CC1 [Compound 72, (4-(3-Fluoro-2-(trifluoromethyl)phenyl)piperidin-1-yl)(5-(3,3,3-trifluoropropyl)-4,5,6,7-tetrahydro-1H-pyrazolo[4,3-c]pyridin-3-yl)methanone] | 10.8 nM | 52.8 nM
N#CN1CCc2c(C(=O)N3CCC(c4ccc(F)c(F)c4C(F)(F)F)CC3)n[nH]c2C1 [Compound 120, 3-(4-(3,4-Difluoro-2-(trifluoromethyl)phenyl)piperidine-1-carbonyl)-1,4,5,7-tetrahydro-6H-pyrazolo[3,4-c]pyridine-6-carbonitrile] | – | 21 nM
CNC(=O)N1CCc2c(C(=O)N3CCC(c4ccc(F)c(F)c4C(F)(F)F)CC3)n[nH]c2C1 [Compound 112, 3-(4-(3,4-Difluoro-2-(trifluoromethyl)phenyl)piperidine-1-carbonyl)-N-methyl-1,4,5,7-tetrahydro-6Hpyrazolo[3,4-c]pyridine-6-carboxamide] | 11.5 nM | 27.5 nM
N#Cc1ccc2nnc(C(=O)N3CCC(c4cc(Cl)ccc4C(F)(F)F)CC3)n2c1 [Compound 161] | 5.74 nM | 25.8 nM
O=C(c1ccncc1)N1Cc2[nH]nc(C(=O)N3CCC(c4ccc(F)c(F)c4C(F)(F)F)CC3)c2C1 [Compound 105, (4-(3,4-difluoro-2(trifluoromethyl)phenyl)piperidin-1-yl)(5-isonicotinoyl-1,4,5,6-tetrahydropyrrolo[3,4-c]pyrazol-3-yl)methanone] | 11.2 nM | 36.4 nM
CC(C)C(=O)N1CCc2c(C(=O)N3CCC(c4ccc(F)c(F)c4C(F)(F)F)CC3)n[nH]c2C1 [Compound 121, 1-(3-(4-(3,4-Difluoro-2-(trifluoromethyl)phenyl)piperidine-1-carbonyl)-1,4,5,7-tetrahydro-6H-pyrazolo[3,4-c]pyridin-6-yl)-2-methylpropan-1-one] | 8.84 nM | 31.8 nM
N#Cc1ccc2nnc(C(=O)N3CCC(c4ccc(F)cc4C(F)(F)F)CC3)n2c1 [Compound 160, 3-(4-(4-fluoro-2-(trifluoromethyl)phenyl)piperidine-1-carbonyl)-[1,2,4]triazolo[4,3-a]pyridine-6-carbonitrile] | 9.06 nM | 19.8 nM
COCCN1CCc2c(C(=O)N3CCC(c4ccc(F)c(F)c4C(F)(F)F)CC3)n[nH]c2C1 [Compound 124, (4-(3,4-Difluoro-2-(trifluoromethyl)phenyl)piperidin-1-yl)(6-(2-methoxyethyl)-4,5,6,7-tetrahydro-1H-pyrazolo[3,4-c]pyridin-3-yl)methanone] | 14.6 nM | 24.9 nM
COCCN1CCc2[nH]nc(C(=O)N3CCC(c4cccc(F)c4Cl)CC3)c2C1 [Compound 168, (4-(2-Chloro-3-fluorophenyl)piperidin-1-yl)(5-(2-methoxyethyl)-4,5,6,7-tetrahydro-1H-pyrazolo[4,3-c]pyridin-3-yl)methanone] | 15.5 nM | 81.3 nM
CC(=O)N1CCc2[nH]nc(C(=O)N3CCC(c4ccc(F)c(F)c4C(F)(F)F)CC3)c2C1 [Compound 82, 1-(3-(4-(3,4-Difluoro-2-(trifluoromethyl)phenyl)piperidine-1-carbonyl)-6,7-dihydro-1H-pyrazolo[4,3-c]pyridin-5(4H)-yl)ethanone] | 11.6 nM | 30.8 nM
CS(=O)(=O)N1CCc2[nH]nc(C(=O)N3CCC(c4ccc(F)cc4C(F)(F)F)CC3)c2C1 [Compound 159, (4-(4-fluoro-2-(trifluoromethyl)phenyl)piperidin-1-yl)(5-(methylsulfonyl)-4,5,6,7-tetrahydro-1H-pyrazolo[4,3-c]pyridine-3-yl)methanone] | 8.06 nM | 52.3 nM
CS(=O)(=O)N1CCc2[nH]nc(C(=O)N3CCC(c4cc(F)ccc4C(F)(F)F)CC3)c2C1 [Compound 141, (4-(5-fluoro-2-(trifluoromethyl)phenyl)piperidin-1-yl)(5-(methylsulfonyl)-4,5,6,7-tetrahydro-1H-pyrazolo[4,3-c]pyridin-3-yl)methanone] | 5.24 nM | 20.8 nM
CCN1CCc2[nH]nc(C(=O)N3CCC(c4cccc(F)c4C(F)(F)F)CC3)c2C1 [Compound 67, (5-ethyl-4,5,6,7-tetrahydro-1H-pyrazolo[4,3-c]pyridin-3-yl)(4-(3-fluoro-2-(trifluoromethyl)phenyl)piperidin-1-yl)methanone] | 8.31 nM | 40.8 nM
CCN1CCc2[nH]nc(C(=O)N3CCC(c4ccc(F)c(F)c4C(F)(F)F)CC3)c2C1 [Compound 87, (4-(3,4-difluoro-2-(trifluoromethyl)phenyl)piperidin-1-yl)(5-ethyl-4,5,6,7-tetrahydro-1H-pyrazolo[4,3-c]pyridin-3-yl)methanone] | – | 22.2 nM and 16.4 nM
O=C(c1n[nH]c2c1CNCC2)N1CCC(c2cccc(F)c2C(F)(F)F)CC1 [Compound 32, ((4-(3-Fluoro-2-(trifluoromethyl)phenyl)piperidin-1-yl)(4,5,6,7-tetrahydro-1H-pyrazolo[4,3-c]pyridin-3-yl)methanone Hydrochloride] | 62.5 nM | 244 nM
COc1ccc2nnc(C(=O)N3CCC(c4cc(C(F)(F)F)cc(C(F)(F)F)c4)CC3)n2c1 [Compound 155, (4-(3,5-bis(trifluoromethyl)phenyl)piperidin-1-yl)(6-methoxy-[1,2,4]triazolo[4,3-a]pyridin-3-yl) methanone] | 21.6 nM | 186 nM
O=C(c1n[nH]c2c1CN(CC(F)(F)F)CC2)N1CCC(c2cccc(F)c2Cl)CC1 [Compound 166, (4-(2-Chloro-3-fluorophenyl)piperidin-1-yl)(5-(2,2,2-trifluoroethyl)-4,5,6,7-tetrahydro-1H-pyrazolo[4,3-c]pyridin-3-yl)methanone] | 12.2 nM | 37.9 nM
CC(C)(C)CN1Cc2[nH]nc(C(=O)N3CCC(c4ccc(F)c(F)c4C(F)(F)F)CC3)c2C1 [Compound 99, (4-(3,4-difluoro-2-(trifluoromethyl)phenyl)piperidin-1-yl)(5-neopentyl-1,4,5,6-tetrahydropyrrolo[3,4-c]pyrazol-3-yl)methanone] | 22.5 nM | 147 nM
O=C(c1n[nH]c2c1CN(CC1CC1)CC2)N1CCC(c2ccc(F)c(F)c2C(F)(F)F)CC1 [Compound 88, (5-(cyclopropylmethyl)-4,5,6,7-tetrahydro-1Hpyrazolo[4,3-c]pyridin-3-yl)(4-(3,4-difluoro-2-(trifluoromethyl)phenyl)piperidin-1-yl)methanone] | 14.7 nM and 13.4 nM | –
N#CN1CCc2[nH]nc(C(=O)N3CCC(c4cccc(F)c4C(F)(F)F)CC3)c2C1 [Compound 70, 3-(4-(3-Fluoro-2-(trifluoromethyl)phenyl)piperidine-1-carbonyl)-6,7-dihydro-1H-pyrazolo[4,3-c]pyridine-5(4H)-carbonitrile] | 16.4 nM | –
O=C(c1n[nH]c2c1CN(CC1CC1)CC2)N1CCC(c2cccc(F)c2C(F)(F)F)CC1 [Compound 69, (5-(Cyclopropylmethyl)-4,5,6,7-tetrahydro-1Hpyrazolo[4,3-c]pyridin-3-yl)(4-(3-fluoro-2-(trifluoromethyl)phenyl)piperidin-1-yl)methanone] | 10 nM | 26.7 nM
